According to patent US5614510A, “Pharmaceutical composition with improved bioavailability of inositol phosphate” (priority 1992, dated 1997):
Counter-ions that a name gives are not always drawn.

Assay: bioavailability of IP3 in pigs: blood concentration of IP3 and AUC after intravenous, intraduodenal or oral administration
Settings: pig, in vivo
Procedure: The bioavailability of N(3-dodecanoyloxy)propyltrimethylammonium inositol trisphosphate (obtained according to Example 1) after oral administration was determined in an experiment with pigs. Five pigs were given an intravenous injection of the sodium salt of D-myo-inositol-1.2.6-trisphosphate (IP3) and blood samples were collected 0.25 hr, 0.5 hr, 1 hr, 4 hrs, 6 hrs, 8 hrs and 24 hrs after the injection. The blood samples were assayed for the content of IP3 and these measurements were used for the calculation of the reference data as 100% of the substance is introduced into the blood stream after an intravenous injection.
Another five pigs were given the N(3-dodecanoyloxy)propyltrimethyl ammonium salt of IP3 as an intraduodenal dosing. The animals were treated with Atropin® and anaesthetized with Hypnodil®/Sedaperone® whereafter a laparotomy was carried out. Blood samples were collected at the time intervals mentioned above and the concentration of IP3 was determined in each sample. By calculating the area under the curve (AUC) from a graph where the concentration versus time is shown and comparing the obtained value with a similar calculation from the data after intravenous injection of the substance the bioavailability for the specific formulation is obtained.
Still another five pigs were given the penta-sodium salt of IP3 orally. Blood samples were collected at the same time intervals as above and the concentration of IP3 was determined. Following a similar procedure the AUC was determined.
The bioavailability of N-(hexyloxycarbonyl)methyl trimethyl ammonium inositol trisphosphate after oral administration was determined with a method similar to the description in Example 2. […] Blood samples were collected and the concentration of IP3 were determined.
The bioavailability of a formulation consisting of dodecyldimethyl amine and D-myo-inositol-1.2.6-trisphosphate (IP3) after oral administration was determined with a method similar to the description in Example 2. […] Blood samples were collected and the concentration of IP3 were determined.

Row | concentration at 6 h (iv) [nM] | concentration (iv, 6 h) [nM] | concentration (8 h) [nM] | Compound
1 | 1100 | 1100 |  | O=P(O)(O)O[C@@H]1[C@H](OP(=O)(O)O)[C@H](O)[C@@H](O)[C@H](O)[C@H]1OP(=O)(O)O [sodium salt, pentasodium salt of D-myo-inositol-1.2.6-triphosphate]
2 |  |  | 600 | N-(hexyloxycarbonyl)methyl trimethyl ammonium inositol trisphosphate
